Data on 23 compounds can be found in patent publication US9290488B2, “Azetidine-substituted quinoxalines as opioid receptor like-1 modulators” (priority 2011, dated 2016).

For assay [1], the target named is human opioid receptor-like (ORL-1) (Homo sapiens (Human), UniProt P41146). The experiment in a line: ORL-1 receptor [35S]GTPγS functional binding assay. It counts as biochemical. The settings on record: ORL-1 GTPγS. (Binding of GTPγS marks nucleotide exchange on a G protein.)
For a further assay, the target named is human μ-receptors (Homo sapiens (Human), UniProt P35372). The experiment in a line: In vitro mu-opioid receptor [35S]GTPγS functional assay.

On to `O=C(O)[C@@H]1CCN1c1nc2ccccc2n([C@H]2C[C@H]3CCC[C@@H](C2)N3[C@@H]2C[C@@H]3CCCC[C@@H](C3)C2)c1=O`, for which the “GTPγS Emax [mean ± SEM] ORL-1” value in assay [1] came out at 41.0 ± 0.6%.

On to `O=C(O)C1CN(c2nc3ccccc3n([C@H]3C[C@H]4CCC[C@@H](C3)N4C3CCCCCCCCC3)c2=O)C1`, for which, in assay [1], the “GTPγS Emax [mean ± SEM] ORL-1” value turned out to be 103.0 ± 2.1%. `CO[C@H]1CN(c2nc3ccccc3n([C@H]3C[C@H]4CCC[C@@H](C3)N4[C@@H]3C[C@@H]4CCCC[C@@H](C4)C3)c2=O)[C@@H]1C(=O)O`: the “GTPγS Emax [mean ± SEM] ORL-1” value in assay [1] was 24 ± 1%. As for `CC1(C)[C@H]2CC[C@@H](CCN3[C@@H]4CCC[C@H]3C[C@@H](n3c(=O)c(N5CC(C(=O)O)C5)nc5ccccc53)C4)[C@@H]1C2`, the “GTPγS Emax [mean ± SEM] Opioid Receptor Mu” value at human μ-receptors was determined as 67.7 ± 2.9%. Further, the “GTPγS Emax [mean ± SEM] ORL-1” value in assay [1] was 58.3 ± 4.5%. Consider `C[C@@H]1C[C@@H]2C[C@H](C1)C[C@@H](N1[C@@H]3CCC[C@H]1C[C@@H](n1c(=O)c(N4CC[C@H]4C(=O)O)nc4ccccc41)C3)C2`, for which the “GTPγS Emax [mean ± SEM] ORL-1” value in assay [1] came out at 61 ± 5%. Regarding `C[C@@H]1C[C@@H]2C[C@H](C1)C[C@@H](N1[C@@H]3CC[C@H]1C[C@@H](n1c(=O)c(N4CC[C@H]4C(=O)O)nc4ccccc41)C3)C2`, the “GTPγS Emax [mean ± SEM] Opioid Receptor Mu” value at human μ-receptors is 36.7 ± 5.8%. Moreover, the “GTPγS Emax [mean ± SEM] ORL-1” value in assay [1] turned out to be 47.3 ± 4.8%.

Turning to `C[C@@H]1C[C@@H]2C[C@H](C1)C[C@@H](N1[C@@H]3CCC[C@H]1C[C@@H](n1c(=O)c(N4CC(C(=O)O)C4)nc4ccccc41)C3)C2`, the “GTPγS Emax [mean ± SEM] ORL-1” value in assay [1] was 29.3 ± 3.0%.

`CC1(C)[C@H]2CC[C@@H](CCN3[C@@H]4CCC[C@H]3C[C@@H](n3c(=O)c(N5CC[C@H]5C(=O)O)nc5ccccc53)C4)[C@@H]1C2`: on human μ-receptors, the “GTPγS Emax [mean ± SEM] Opioid Receptor Mu” value is 25.3 ± 1.8%. Also, the “GTPγS Emax [mean ± SEM] ORL-1” value in assay [1] amounted to 53.7 ± 3.8%.

In the case of `CN(C)[C@@H]1CN(c2nc3ccccc3n([C@H]3C[C@H]4CCC[C@@H](C3)N4[C@@H]3C[C@@H]4CCCC[C@@H](C4)C3)c2=O)[C@@H]1C(=O)O`, in assay [1], the “GTPγS Emax [mean ± SEM] ORL-1” value is 28.7 ± 1.2%. On the same count and under the same terms, for `O=C(O)[C@H]1CCN1c1nc2ccccc2n([C@H]2C[C@H]3CCC[C@@H](C2)N3[C@H]2C[C@@H]3CCC[C@@H](C3)C2)c1=O` the value was 27.3 ± 1.7%. Take `O=C(O)[C@H]1CCN1c1nc2ccccc2n([C@H]2C[C@H]3CCC[C@@H](C2)N3[C@@H]2C[C@@H]3CCCC[C@@H](C3)C2)c1=O`: the “GTPγS Emax [mean ± SEM] Opioid Receptor Mu” value on human μ-receptors is 9.0 ± 0.6%. In addition, the “GTPγS Emax [mean ± SEM] ORL-1” value in assay [1] was 29.0 ± 0.6%.

As for `C[C@@H]1C[C@@H]2C[C@H](C1)C[C@@H](N1[C@@H]3CC[C@H]1C[C@@H](n1c(=O)c(N4CC[C@@H]4C(=O)O)nc4ccccc41)C3)C2`, on human μ-receptors, the “GTPγS Emax [mean ± SEM] Opioid Receptor Mu” value worked out at 19.7 ± 0.9%. Moreover, the “GTPγS Emax [mean ± SEM] ORL-1” value in assay [1] is 38.7 ± 3.5%.

With `CC[C@@H]1C[C@@H]2C[C@H](C1)C[C@@H](N1[C@@H]3CCC[C@H]1C[C@@H](n1c(=O)c(N4CC[C@H]4C(=O)O)nc4ccccc41)C3)C2` [B20a(ii)], at human μ-receptors, the “GTPγS Emax [mean ± SEM] Opioid Receptor Mu” value worked out at 30.3 ± 1.7%. In assay [1], the “GTPγS Emax [mean ± SEM] ORL-1” value stood at 51.3 ± 0.3%.

For `O=C(O)[C@@H]1CCN1c1nc2ccccc2n([C@H]2C[C@H]3CC[C@@H](C2)N3[C@@H]2C[C@@H]3CCCC[C@@H](C3)C2)c1=O`, on human μ-receptors, the “GTPγS Emax [mean ± SEM] Opioid Receptor Mu” value came to 23.3 ± 0.3%. The “GTPγS Emax [mean ± SEM] ORL-1” value in assay [1] was 50.3 ± 4.4%. Regarding `O=C(O)CC1CN(c2nc3ccccc3n([C@H]3C[C@H]4CCC[C@@H](C3)N4[C@@H]3C[C@@H]4CCCC[C@@H](C4)C3)c2=O)C1`, the “GTPγS Emax [mean ± SEM] ORL-1” value in assay [1] is 23.7 ± 2.0%. Still for that read-out and setting: the figure for `CO[C@H]1CN(c2nc3ccccc3n([C@H]3C[C@H]4CCC[C@@H](C3)N4[C@H]3C[C@@H]4CCC[C@@H](C4)C3)c2=O)[C@@H]1C(=O)O` is 22.3 ± 1.0%; for `C[C@@H]1C[C@@H]2C[C@H](C1)C[C@@H](N1[C@@H]3CCC[C@H]1C[C@@H](n1c(=O)c(N4CC(CC(=O)O)C4)nc4ccccc41)C3)C2` it is 26.0 ± 2.5%.

In the case of `CC1(C)[C@H]2CC[C@@H](CCN3[C@@H]4CCC[C@H]3C[C@@H](n3c(=O)c(N5CC[C@@H]5C(=O)O)nc5ccccc53)C4)[C@@H]1C2`, in assay [1], the “GTPγS Emax [mean ± SEM] ORL-1” value stood at 51.3 ± 5.8%. As for `O=C(O)CC1CN(c2nc3ccccc3n([C@H]3C[C@H]4CC[C@@H](C3)N4[C@@H]3C[C@@H]4CCCC[C@@H](C4)C3)c2=O)C1`, in assay [1], the “GTPγS Emax [mean ± SEM] ORL-1” value is on record as 47.3 ± 2.2%.

As for `C[C@@H]1C[C@@H]2C[C@H](C1)C[C@@H](N1[C@@H]3CCC[C@H]1C[C@@H](n1c(=O)c(N4CC[C@@H]4C(=O)O)nc4ccccc41)C3)C2`, the “GTPγS Emax [mean ± SEM] ORL-1” value in assay [1] is 24.0 ± 0.6%.

Regarding `N[C@@H]1CN(c2nc3ccccc3n([C@H]3C[C@H]4CCC[C@@H](C3)N4[C@@H]3C[C@@H]4CCCC[C@@H](C4)C3)c2=O)[C@@H]1C(=O)O`, the “GTPγS Emax [mean ± SEM] ORL-1” value in assay [1] stood at 25.67 ± 1.45%. With `CC(=O)N[C@@H]1CN(c2nc3ccccc3n([C@H]3C[C@H]4CCC[C@@H](C3)N4[C@@H]3C[C@@H]4CCCC[C@@H](C4)C3)c2=O)[C@@H]1C(=O)O`, the “GTPγS Emax [mean ± SEM] ORL-1” value in assay [1] is 19.75 ± 0.48%. For `O=C(O)[C@@H]1CCN1c1nc2ccccc2n([C@H]2C[C@H]3CCC[C@@H](C2)N3[C@H]2C[C@@H]3CCC[C@@H](C3)C2)c1=O`, on human μ-receptors, the “GTPγS Emax [mean ± SEM] Opioid Receptor Mu” value amounted to 12.0 ± 2.1%. Further, the “GTPγS Emax [mean ± SEM] ORL-1” value in assay [1] amounted to 29.0 ± 0.9%.
